From patent USH1209H, “No-carrier-added (18F)-N-methylspiroperidol” (The United States of America as represented by the United …, priority 1985, dated 1993)

Test: Metabolic stability and uptake in rat brain (striatum, cerebellum)
Type: in vivo, rat (male BNL R strain)
Settings: for Ave. & Inj. Dose per Region / Ave. % of Total Radioactivity Extracted: n = 2
Procedure: To investigate the metabolic stability of [^18 F]-N-methylspiroperidol in the central nervous system, its stability in rat brain studied (Table 2). […] However, rat striatal uptake of the N-methyl radioligand was five-fold higher than with [^18 F]spiroperidol.
Four male BNL R strain rats (350-380 g) (Brookhaven National Laboratory, Upton, N.Y.) were injected with 1.4 to 1.8 mCi of [^18 F]-N-methylspiroperidol, i.v. At 1 or 4 hrs after injection (2 animals each), the animal was killed and the combined striata and cerebellum were separately counted and homogenized in a mixture of 1 ml of MeOH and 2 ml of 0.4M HClO4. The samples were centrifuged, and the entire supernates were analyzed for unchanged [^18 F]-N-methylspiroperidol.

CN1CN(c2ccccc2)C2(CCN(CCCC(=O)c3ccc([18F])cc3)CC2)C1=O [[^18 F]-N-methylspiroperidol]
distribution and stability compared with [^18 F]spiroperidol (Examples 3 and 5): superior
Ave. & Inj. Dose per Region (rat cerebellum, 1 h after injection, ind. values 0.0149, 0.0141): 0.0145
Ave. % of Total Radioactivity Extracted (rat cerebellum, 1 h after injection, ind. values 74, 74): 74%
Ave. & Inj. Dose per Region (rat cerebellum, 4 h after injection, ind. values 0.0025, 0.0024): 0.0024
Ave. % of Total Radioactivity Extracted (rat cerebellum, 4 h after injection, ind. values 77, 74): 76%
Ave. & Inj. Dose per Region (rat striatum, 1 h after injection, ind. values 0.0712, 0.0612): 0.0662
Ave. % of Total Radioactivity Extracted (rat striatum, 1 h after injection, ind. values 88, 90): 89%
Ave. & Inj. Dose per Region (rat striatum, 4 h after injection, ind. values 0.0723, 0.0653): 0.0688
Ave. % of Total Radioactivity Extracted (rat striatum, 4 h after injection, ind. values 88, 88): 88%
rat striatal uptake relative to [^18 F]spiroperidol (rat striatum, N-methyl radioligand higher): five-fold
absolute amount in the striatum (rat, 1 to 4 hrs after injection): remaining constant from 1 to 4 hrs after injection
